Laboratory results taken from PubChem BioAssay (Tox21).
This is a selection; strong and weak results do not stand in their true shares. Inconclusive results are not listed. A structure can be active in one record and inactive in another. Calls of active or inactive are those of the source. Unless noted, calls come from the whole dose curve.

Chains of the proteins cited; added tags and fusions are not shown.
UniProt P30968, whole entry: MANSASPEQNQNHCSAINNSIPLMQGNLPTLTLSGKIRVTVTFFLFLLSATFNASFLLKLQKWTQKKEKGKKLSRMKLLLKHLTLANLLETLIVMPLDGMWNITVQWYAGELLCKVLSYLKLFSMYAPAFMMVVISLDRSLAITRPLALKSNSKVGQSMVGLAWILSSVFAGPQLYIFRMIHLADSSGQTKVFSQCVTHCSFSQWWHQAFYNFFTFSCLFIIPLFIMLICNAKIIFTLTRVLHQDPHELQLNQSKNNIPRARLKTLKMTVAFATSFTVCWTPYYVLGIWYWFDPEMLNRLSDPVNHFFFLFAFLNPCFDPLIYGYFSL
UniProt Q969F8, whole entry: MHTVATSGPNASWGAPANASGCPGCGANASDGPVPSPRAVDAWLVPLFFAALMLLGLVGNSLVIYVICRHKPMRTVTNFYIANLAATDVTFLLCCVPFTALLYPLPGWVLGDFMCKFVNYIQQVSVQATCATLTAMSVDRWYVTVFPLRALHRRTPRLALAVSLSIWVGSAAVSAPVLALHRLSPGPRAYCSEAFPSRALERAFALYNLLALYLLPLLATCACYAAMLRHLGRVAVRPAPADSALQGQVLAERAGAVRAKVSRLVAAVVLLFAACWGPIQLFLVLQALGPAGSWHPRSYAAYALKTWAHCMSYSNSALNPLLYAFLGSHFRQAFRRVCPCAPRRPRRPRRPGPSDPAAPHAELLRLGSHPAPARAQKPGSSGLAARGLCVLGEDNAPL
UniProt P28223, whole entry: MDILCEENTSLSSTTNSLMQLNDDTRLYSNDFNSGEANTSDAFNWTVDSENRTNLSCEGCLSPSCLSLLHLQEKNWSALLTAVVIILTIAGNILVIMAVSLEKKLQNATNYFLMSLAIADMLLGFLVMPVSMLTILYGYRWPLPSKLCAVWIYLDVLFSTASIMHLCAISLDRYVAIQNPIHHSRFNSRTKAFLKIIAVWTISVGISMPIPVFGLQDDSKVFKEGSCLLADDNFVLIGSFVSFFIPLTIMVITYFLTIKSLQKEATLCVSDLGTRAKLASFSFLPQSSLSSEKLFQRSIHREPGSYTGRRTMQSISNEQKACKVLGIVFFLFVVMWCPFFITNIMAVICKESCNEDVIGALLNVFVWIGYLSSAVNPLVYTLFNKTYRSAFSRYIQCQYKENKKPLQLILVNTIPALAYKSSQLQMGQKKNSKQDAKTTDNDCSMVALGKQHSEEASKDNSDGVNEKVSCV
UniProt P07550, whole entry: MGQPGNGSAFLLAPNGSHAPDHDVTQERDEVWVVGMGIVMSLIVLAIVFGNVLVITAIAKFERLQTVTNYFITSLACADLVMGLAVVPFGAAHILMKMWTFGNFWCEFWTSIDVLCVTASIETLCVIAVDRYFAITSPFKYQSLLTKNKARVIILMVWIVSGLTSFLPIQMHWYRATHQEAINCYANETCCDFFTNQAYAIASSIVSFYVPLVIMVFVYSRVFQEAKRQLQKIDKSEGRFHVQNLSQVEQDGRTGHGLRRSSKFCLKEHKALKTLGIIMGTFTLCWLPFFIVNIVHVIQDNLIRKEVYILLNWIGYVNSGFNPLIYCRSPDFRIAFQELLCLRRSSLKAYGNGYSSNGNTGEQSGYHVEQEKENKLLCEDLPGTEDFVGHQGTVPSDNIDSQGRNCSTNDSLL
UniProt P14416, whole entry: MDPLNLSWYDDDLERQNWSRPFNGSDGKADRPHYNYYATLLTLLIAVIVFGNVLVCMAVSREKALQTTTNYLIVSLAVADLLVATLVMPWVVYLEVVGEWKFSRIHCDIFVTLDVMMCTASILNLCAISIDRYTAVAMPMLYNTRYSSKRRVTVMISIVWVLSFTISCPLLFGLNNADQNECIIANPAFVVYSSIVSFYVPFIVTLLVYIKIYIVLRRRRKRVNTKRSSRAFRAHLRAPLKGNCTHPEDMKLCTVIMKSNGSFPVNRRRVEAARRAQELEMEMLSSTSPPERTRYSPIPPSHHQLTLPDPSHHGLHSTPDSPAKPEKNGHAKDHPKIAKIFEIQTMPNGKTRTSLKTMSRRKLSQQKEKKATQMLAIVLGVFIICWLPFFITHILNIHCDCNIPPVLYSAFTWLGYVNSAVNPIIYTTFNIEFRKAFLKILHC

How the values were obtained:
[1] = biological target: Gonadotropin-releasing hormone receptor (Homo sapiens) (UniProt P30968); assay: Human gonadotropin-releasing hormone receptor (GnRHR) small molecule agonists, calcium flux assay in GnRHR-HEK293 cells (AID 1920063); settings: calcium flux fluorescence, agonist mode, stronger effect = higher value; note: nearly all actives have a fitted effect of over 35% in size
Summary of the method: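 Calcium-dye fluorescence, Ex/Em=480/540, recorded every 1 sec over 3 min after compound addition to GnRHR-HEK293 cells. Cells had been seeded 18 hours earlier and dye-loaded for 1 hour at 37 C. Fifteen concentrations, triplicates.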

[2] = biological target: KiSS-1 receptor (Homo sapiens) (UniProt Q969F8); assay: Human kisspeptin (KISS1R) small molecule agonists, calcium flux assay in KISS1R-HEK293 cells (AID 1920064; active = well fitted activation curve with a large enough effect in the repeat runs); settings: KISS1R-HEK293, calcium flux fluorescence, agonist
Summary of the method: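 Calcium flux read-out: kinetic fluorescence at Ex/Em=480/540, 1 s intervals over 3 min, after pin-tool compound addition to dye-loaded KISS1R-HEK293 cells. Fifteen concentrations, triplicates.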

[3] = G protein-coupled receptor (GPCR) small molecule agonists, calcium flux assay: HEK293 wild type cell line counter screen (AID 1920065); settings: HEK293 WT calcium flux, fluorescence, agonist mode
Summary of the method: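 Agonist mode; 18 h seeding at 37 C, 1 h dye load at 37 C; compounds pinned from DMSO, ATP as positive control; kinetic fluorescence 480/540 nm, 3 min, 1 s reads; 15 concentrations, triplicate.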

[4] = p53 small molecule agonists, cell-based qHTS assay with human liver microsomes (AID 1963577); settings: HCT-116 p53RE-bla with human liver microsomes, ratio, 16 h;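 note: p53 response element beta-lactamase reporter cells with liver microsomes plus NADPH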
Summary of the method: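 In this qHTS, p53 response-element beta-lactamase cells receive test compound together with a microsome/NADPH activating system (0.5 mg/mL final each) and are incubated 16 h at 37 C before LiveBLAzer fluorescence detection.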

[5] = p53 small molecule agonists, cell-based qHTS assay with rat liver microsomes (AID 1963578); settings: HCT-116 p53RE-bla, beta-lactamase ratio, 16 h
Summary of the method: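 Agonist mode in p53RE-bla reporter cells, with compounds co-incubated 16 h at 37 C alongside 0.5 mg/mL rat liver microsomes and 0.5 mg/mL NADPH (final), followed by a 2 h LiveBLAzer detection step.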

[6] = p53 small molecule agonists, cell-based qHTS assay with human liver microsomes: qHTS cell viability counter screen (AID 1963579); settings: p53RE-bla HCT-116 viability, ATP luminescence, 16 h, HLM; note: nearly all actives have a fitted effect of over 45% in size
Summary of the method: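 Metabolically activated exposure: compounds, human liver microsomes and NADPH (0.5 mg/mL final apiece) were added to p53RE-bla cells seeded 5 h earlier, left 16 h at 37 C, and then assessed for viability by CellTiter-Glo luminescence.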

[7] = p53 small molecule agonists, cell-based qHTS assay with rat liver microsomes: qHTS cell viability counter screen (AID 1963580); settings: p53RE-bla HCT-116 + rat microsomes, ATP viability, 16 h; at 66 µM (top of the series) unless noted; note: nearly all actives have a fitted effect of over 45% in size
Summary of the method: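 Luminescent ATP readout (CellTiter-Glo, 30 min at room temperature) reports viability of p53RE-bla HCT-116 cells after 16 h at 37 C with test compounds under metabolic activation by rat liver microsomes and NADPH at 0.5 mg/mL final each.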

[8] = p53 small molecule agonists, cell-based qHTS assay: qHTS cell viability counter screen (AID 1963581); settings: p53RE-bla HCT-116 viability, ATP luminescence, 16 h; note: nearly all actives have a fitted effect of over 45% in size
Summary of the method: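 Cytotoxicity read-out: ATP-based luminescence (CellTiter-Glo, 30 min RT) measured in the same wells as the p53 reporter assay, HCT-116 p53RE-bla cells, 16 h compound exposure at 37 C.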

[9] = p53 small molecule agonists, cell-based qHTS assay (AID 1963582; active = well fitted activation curve with a large enough effect in the signal ratio in the repeat runs, not every such curve was filed as active; the % refers to the signal ratio; note: potency is the fitted concentration of half-maximal effect)
Summary of the method: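 Fluorescence intensity read-out of a beta-lactamase reporter under a p53 response element. Cells were exposed to DMSO-dissolved compounds for 16 h at 37 C, then developed with FRET substrate for 2 h at RT.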

[10] = biological target: 5-hydroxytryptamine receptor 2A (Homo sapiens) (UniProt P28223); assay: 5-hydroxytryptamine receptor 2A (HTR2A) small molecule antagonists, cell-based qHTS assay (AID 1963586); settings: HTR2A-CHO cells, DOI-induced calcium flux, fluorescence; note: nearly all actives have a fitted effect of over 45% in size
Summary of the method: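 CHO cells stably expressing human HTR2A were plated for 18 h at 37 C, then loaded with calcium dye for 1 h. Compounds were preincubated 5 min at room temperature before DOI (4 nM solution) was added. Kinetic fluorescence was read for 3 min.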

[11] = biological target: 5-hydroxytryptamine receptor 2A (Homo sapiens) (UniProt P28223); assay: 5-hydroxytryptamine receptor 2A (HTR2A) small molecule agonists, cell-based qHTS assay (AID 1963587); settings: HTR2A-CHO cells, calcium flux fluorescence, agonist mode; note: nearly all actives have a fitted effect of over 30% in size
Summary of the method: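 HTR2A-CHO cells, plated 18 h at 37 C/5% CO2, dye-loaded 1 h at 37 C; compounds in DMSO added by pin tool (agonist mode). Intracellular calcium flux read as kinetic fluorescence on FDSS over 2 min at 1 s intervals.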

[12] = cAMP Responsive Elements (CRE) small molecule agonists, cell-based qHTS assay (AID 1963590); settings: CRE-bla HEK293T, beta-lactamase FRET ratio, 3 h
Summary of the method: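 Beta-lactamase reporter readout: LiveBLAzer B/G FRET substrate, 2 h at room temperature, added after 3 h compound treatment of CRE-bla HEK 293T cells at 37 C/5% CO2.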

[13] = biological target: Beta-2 adrenergic receptor (Homo sapiens) (UniProt P07550); assay: Adrenergic beta2 receptor (ADRB2) small molecule antagonists, cell-based qHTS assay (AID 1963592); settings: CHO-ADRB2 cells, isoproterenol-stimulated cAMP HTRF ratio, 0.5 h; note: nearly all actives have a fitted effect of over 50% in size
Summary of the method: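 Assay format: CHO-ADRB2 cells, 18-20hr seeding at 37C/5% CO2, then compound plus 1nM isoproterenol agonist mix for 0.5hr RT. Homogeneous time-resolved fluorescence cAMP detection after 1hr, expressed as 665/615 nm ratio.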

[14] = biological target: Beta-2 adrenergic receptor (Homo sapiens) (UniProt P07550); assay: Adrenergic beta2 receptor (ADRB2) small molecule agonists, cell-based qHTS assay (AID 1963593); settings: CHO-ADRB2 cells, cAMP HTRF, 30 min; at 92.4 µM (top of the series);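 note: CHO cells stably overexpressing human ADRB2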
Summary of the method: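 CHO cells stably over-expressing ADRB2 were plated overnight at 37C, then dosed with compounds plus a stimulation mix containing 100uM IBMX and 25uM Ro-20-1724 for 0.5hr at room temperature. cAMP was measured by HTRF competition, 1hr.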

[15] = biological target: D(2) dopamine receptor (Homo sapiens) (UniProt P14416); assay: Dopamine D2 receptor (DRD2) small molecule agonists, cell-based qHTS assay (AID 1963594); settings: HEK293-DRD2 cAMP HTRF, agonist mode, 30 min; note: nearly all actives have a fitted effect of over 35% in size
Summary of the method: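 HEK293 cells stably expressing DRD2 were cultured 24 h at 37 C, then given Ro20-1724 (0.1 mM final) and compounds for 10 min at room temperature. NKH477 (200nM) was then added for 30 min. cAMP was read by HTRF.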

[16] = biological target: D(2) dopamine receptor (Homo sapiens) (UniProt P14416); assay: Dopamine D2 receptor (DRD2) small molecule antagonists, cell-based qHTS assay (AID 1963595; active = well fitted inhibition curve with a large enough effect in the signal ratio in the repeat runs, with a control signal flat; the % refers to the signal ratio); settings: HEK293-DRD2 cAMP HTRF antagonist mode
Summary of the method: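 In this cell-based antagonist screen, compounds act for 10 min at room temperature before a 30 min challenge with 12 nM quinpirole and 200 nM NKH477. cAMP is quantified by HTRF competition in DRD2-HEK293 cells containing 0.1 mM Ro20-1724.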
% is set by controls: 0 for no effect and ±100 for the full control effect.

CN(CCCl)CCCl
inactive: activity change ([1]; at 26.4 µM (top of the series)) -0.654% | activity change ([1]; at 57.6 µM (top of the series)) -0.929% | activation ([2]; at 35.3 µM (top of the series)) -1.68% | activation ([2]; at 76.8 µM (top of the series)) -4.51% | activation ([3]; at 26.5 µM (top of the series)) -0.976% | activation ([3]; at 57.6 µM (top of the series)) -0.455% | activation ([4]; at 30.3 µM (top of the series)) 1.2% | activation ([4]; at 66 µM (top of the series)) 2.6% | activation ([5]; at 30.3 µM (top of the series)) 20.9% | activation ([5]; at 66 µM (top of the series)) 4.79% | activity change, negative = cytotoxicity ([6]; at 30.3 µM (top of the series)) 11.7% | activity change, negative = cytotoxicity ([6]; at 66 µM (top of the series)) -11.9% | activity change, negative = cytotoxicity [7] 15.4% [at 30.3 µM] | activity change, negative = cytotoxicity ([8]; at 30.3 µM (top of the series)) 4% | activity change, negative = cytotoxicity ([8]; at 66 µM (top of the series)) -7.56% | activity, negative = inhibition ([10]; at 28.5 µM (top of the series)) -14.5% | activity, negative = inhibition ([10]; at 61.5 µM (top of the series)) 56.3% | activation ([11]; at 35.6 µM (top of the series)) -0.479% | activation ([11]; at 76.8 µM (top of the series)) 13.6% | activation ([12]; at 42.5 µM (top of the series)) -0.412% | activation ([12]; at 92.4 µM (top of the series)) -1.33% | activity change, negative = inhibition ([13]; at 42.5 µM (top of the series)) -5.88% | activity change, negative = inhibition ([13]; at 92.4 µM (top of the series)) -7.51% | activation [14] 7.88% | activation ([15]; at 42.5 µM (top of the series)) 3.44% | activation ([15]; at 92.4 µM (top of the series)) -0.685% | activity change, negative = inhibition ([16]; at 42.5 µM (top of the series)) 8.82% | activity change, negative = inhibition ([16]; at 92.4 µM (top of the series)) 4.61%
40.7 µM (active) and inactive: Potency [9]
